Values joined by “and” are separate entries in the source; they are usually repeats but may differ in a detail not shown here. Equal values may be shown once. The entries are a selection whose mix differs from that of the whole data set. Inconclusive results are not listed. For some assays here: Potency and affinity values are given separately. Active and inactive are the calls of the source. Unless noted, calls come from the whole dose curve; as a rule, active = well fitted curve in the direction sought with a large enough effect; inconclusive = small, poorly fitted or top-dose-only effect, or another doubt; inactive = no such curve, though single readings can be large; an effect the other way counts as inactive or inconclusive.
Columns and labels:
[1] = biological target: Luciferin 4-monooxygenase (Photinus pyralis) (UniProt P08659); assay: Biochemical firefly luciferase enzyme assay for NPC (AID 624030);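 note: purified P. pyralis luciferase at 10 nM with luciferin and ATP substrate; 0% = DMSO and -100% = full luciferase inhibition by PTC124 control; nearly all actives have a fitted effect of over 70% in size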; details: purified P. pyralis luciferase, luminescence, 5 min; at 123 µM (top of the series) unless noted
How it was run: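 Purified P. pyralis luciferase at 10 nM in 50 mM Tris Acetate (final), luminescence read within 5 minutes of enzyme addition to compounds. Activity normalised to PTC124 versus DMSO; concentration-response curves classed by r2, magnitude and activity.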

Sequences of proteins named here, by UniProt entry; tags and fusion partners are left off. Residues count along the entry.
UniProt P08659, whole entry: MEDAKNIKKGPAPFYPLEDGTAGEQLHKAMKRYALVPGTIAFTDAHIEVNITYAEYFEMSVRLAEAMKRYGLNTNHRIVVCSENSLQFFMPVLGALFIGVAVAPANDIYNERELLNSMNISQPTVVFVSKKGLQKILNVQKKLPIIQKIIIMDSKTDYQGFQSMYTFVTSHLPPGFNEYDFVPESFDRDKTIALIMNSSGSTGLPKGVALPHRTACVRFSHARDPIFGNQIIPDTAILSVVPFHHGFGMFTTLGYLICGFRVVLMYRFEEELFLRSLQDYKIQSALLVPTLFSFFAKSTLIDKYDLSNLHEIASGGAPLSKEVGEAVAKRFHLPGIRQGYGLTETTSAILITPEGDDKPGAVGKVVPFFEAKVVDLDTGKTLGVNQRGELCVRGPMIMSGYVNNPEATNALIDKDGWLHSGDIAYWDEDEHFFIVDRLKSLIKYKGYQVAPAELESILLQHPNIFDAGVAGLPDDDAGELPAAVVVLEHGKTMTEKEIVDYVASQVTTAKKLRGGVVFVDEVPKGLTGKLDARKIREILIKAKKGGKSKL
UniProt P10828, whole entry: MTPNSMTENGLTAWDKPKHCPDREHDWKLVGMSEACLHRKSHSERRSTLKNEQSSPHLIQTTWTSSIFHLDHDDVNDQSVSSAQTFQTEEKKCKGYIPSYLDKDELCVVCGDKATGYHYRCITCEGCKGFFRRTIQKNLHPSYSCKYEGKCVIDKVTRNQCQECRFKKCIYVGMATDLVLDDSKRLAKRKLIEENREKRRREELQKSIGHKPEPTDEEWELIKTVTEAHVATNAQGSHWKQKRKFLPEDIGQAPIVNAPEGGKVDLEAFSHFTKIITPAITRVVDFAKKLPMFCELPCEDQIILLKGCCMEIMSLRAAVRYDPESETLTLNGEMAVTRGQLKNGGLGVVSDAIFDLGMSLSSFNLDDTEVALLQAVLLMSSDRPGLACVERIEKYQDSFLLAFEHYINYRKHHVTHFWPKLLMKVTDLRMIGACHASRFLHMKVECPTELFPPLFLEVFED
UniProt Q12809, 1-548 isoform 6: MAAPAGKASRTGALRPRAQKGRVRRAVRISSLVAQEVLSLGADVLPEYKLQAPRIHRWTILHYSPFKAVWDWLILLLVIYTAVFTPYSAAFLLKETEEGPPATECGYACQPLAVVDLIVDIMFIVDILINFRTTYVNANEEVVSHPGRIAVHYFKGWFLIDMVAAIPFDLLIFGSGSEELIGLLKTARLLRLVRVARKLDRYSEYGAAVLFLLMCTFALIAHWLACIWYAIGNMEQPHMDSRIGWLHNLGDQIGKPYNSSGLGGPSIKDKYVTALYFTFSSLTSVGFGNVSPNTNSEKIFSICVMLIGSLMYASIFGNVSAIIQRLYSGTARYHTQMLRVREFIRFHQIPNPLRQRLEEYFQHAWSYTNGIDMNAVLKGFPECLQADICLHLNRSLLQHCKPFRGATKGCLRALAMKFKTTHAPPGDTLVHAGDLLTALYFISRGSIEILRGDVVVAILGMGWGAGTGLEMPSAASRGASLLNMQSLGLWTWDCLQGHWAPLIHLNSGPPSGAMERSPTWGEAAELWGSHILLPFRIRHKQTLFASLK
UniProt P01375, whole entry: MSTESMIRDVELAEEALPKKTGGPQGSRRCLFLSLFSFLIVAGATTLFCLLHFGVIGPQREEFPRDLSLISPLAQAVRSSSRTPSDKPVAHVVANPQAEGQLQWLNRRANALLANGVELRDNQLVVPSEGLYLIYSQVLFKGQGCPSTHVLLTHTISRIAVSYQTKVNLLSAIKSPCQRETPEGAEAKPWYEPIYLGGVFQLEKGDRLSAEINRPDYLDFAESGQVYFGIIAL
UniProt Q07869, whole entry: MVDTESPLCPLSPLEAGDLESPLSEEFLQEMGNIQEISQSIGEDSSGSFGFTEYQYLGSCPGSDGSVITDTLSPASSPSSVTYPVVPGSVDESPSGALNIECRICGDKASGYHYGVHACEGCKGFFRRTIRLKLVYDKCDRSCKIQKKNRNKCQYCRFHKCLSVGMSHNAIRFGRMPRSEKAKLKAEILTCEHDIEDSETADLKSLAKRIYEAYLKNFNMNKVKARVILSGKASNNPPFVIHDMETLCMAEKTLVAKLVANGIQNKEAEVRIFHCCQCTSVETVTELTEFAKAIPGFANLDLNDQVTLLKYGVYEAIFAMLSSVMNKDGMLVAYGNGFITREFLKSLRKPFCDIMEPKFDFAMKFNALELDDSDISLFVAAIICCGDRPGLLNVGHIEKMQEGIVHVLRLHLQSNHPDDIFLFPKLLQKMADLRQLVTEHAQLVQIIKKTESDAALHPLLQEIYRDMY

[2] = S16 Schwann cell viability assay (CellTiter-Glo assay) (AID 624031); note: nearly all actives have a fitted effect of over 70% in size; note: potency is the fitted concentration of half-maximal effect;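 for activity change, negative = cytotoxicity: native untransfected S16 rat Schwann cells; cellular ATP luminescence as a viability measure; plate controls were DMSO-treated cells for no effect and cell-free wells for full effect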
How it was run: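 Concentration-effect curves come from CellTiter-Glo luminescence of S16 rat Schwann cells after 24 h compound exposure. Each reading was normalized to DMSO wells (0%) and wells without cells, and curves were ranked by r2 and response magnitude.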

[3] = S16 Schwann cell PMP22 intronic element firefly luciferase assay (AID 624032); note: nearly all actives have a fitted effect of over 30% in size; note: potency is the fitted concentration of half-maximal effect;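 for activity change, negative = inhibition: plate controls were DMSO for no effect and PTC124 positive control mean for full effect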
[4] = S16 Schwann cell PMP22 intronic element beta-lactamase assay (AID 624044; calls by dose curve;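 note: 0% = DMSO and -100% = potassium clavulanate positive control; nearly all actives have a fitted effect of over 15% in size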); details: S16 rat Schwann cells, PMP22 element beta-lactamase FRET, 24 h; at 38.3 µM (top of the series)
[5] = biological target: Thyroid hormone receptor beta (Homo sapiens) (UniProt P10828); assay: qHTS assay for small molecule agonists of thyroid hormone receptor beta signaling (AID 588545; calls by dose curve;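 note: 0% = DMSO only and 100% = 10 nM T3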); details: TR-UAS-bla GripTite HEK 293, beta-lactamase ratio, agonist mode, 18 h, percent of T3 response, DMSO as zero; at 76.7 µM (top of the series)
How it was run: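 Stimulation of a TR-driven beta-lactamase reporter was quantified in GripTite HEK 293 cells. Compound series ran for 18 hrs; curves were normalized to T3 and DMSO controls and fitted to yield EC50.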

[6] = biological target: Voltage-gated inwardly rectifying potassium channel KCNH2 (Homo sapiens) (UniProt Q12809); assay: qHTS Assay for Small Molecule Inhibitors of the Human hERG Channel Activity (AID 588834); details: U2OS BacMam hERG, FluxOR thallium flux fluorescence;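 note: U2OS cells transduced with hERG by BacMam; top concentration of the series differs between compounds; % is set by controls: 0 for no effect and ±100 for the full control effect; lower thallium flux fluorescence means stronger hERG block; nearly all actives have a fitted effect of over 50% in size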
[7] = qHTS assay for small molecule activators of the nuclear factor-kappa B (NF-kB) signaling pathway (AID 651749; active = well fitted activation curve with a large enough effect in the signal ratio; the % refers to the signal ratio; note: % of control where 0% means no effect); details: NF-kB-bla ME-180 cells, beta-lactamase FRET ratio, 16 h; active compounds read high
How it was run: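 NF-kB-bla ME-180 cells carrying a beta-lactamase reporter under an NF-kB response element, 2,000 cells/well, exposed to compound for 16 hr at 37C; FRET-based beta-lactamase fluorescence read-out of pathway activation.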

[8] = biological target: Tumor necrosis factor (Homo sapiens) (UniProt P01375); assay: qHTS assay to identify small molecules that stimulate Tumor Necrosis Factor-alpha (TNF-alpha) secretion (AID 651757; active = well fitted curve in the direction sought with a large enough effect in the signal ratio; the % refers to the signal ratio; note: 0% is about no effect); details: Human cells, HTRF 665/615 ratio; at 92.2 µM (top of the series)
How it was run: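 Read-out is HTRF, a TR-FRET sandwich of cryptate- and XL665-labeled anti-TNF-alpha antibodies detecting cytokine secreted by THP-1 cells. Cells had been incubated with test compounds at 37 C for 17 hrs beforehand.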

[9] = qHTS assay for environmental chemicals that activate the Aryl hydrocarbon Receptor (AhR) signaling pathway (AID 651777); details: 1A2-DRE human hepatoma cells, luciferase, 24 h; active compounds read high; note: % of control where 0% means no effect; nearly all actives have a fitted effect of over 15% in size
How it was run: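 Stable CYP1A2 promoter/DRE-luciferase human hepatoma line treated 24 hr; One-Glo luminescence, 30 min RT.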

[10] = biological target: Peroxisome proliferator-activated receptor alpha (Homo sapiens) (UniProt Q07869); assay: qHTS assay for small molecule agonists of the peroxisome proliferator-activated receptor alpha (PPARalpha) signaling pathway (AID 651778); details: PathHunter PPARalpha complementation, chemiluminescence, 6 h; active compounds read high; note: % of control where 0% means no effect
How it was run: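 Enzyme-fragment complementation assay in which ligand-bound PPARalpha translocates and forms an active enzyme that generates chemiluminescence. Cells were plated overnight, exposed to compound for 6 hr at 37 C, and then given detection reagent for 60 min at room temperature.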

[11] = qHTS assay for small molecule agonists of the antioxidant response element (ARE) signaling pathway measured by Nrf2-dependant transcriptional activity (AID 720636; active = well fitted curve in the direction sought with a large enough effect in the repeat runs; an effect the other way counts as inactive or inconclusive; note: potency is the fitted concentration of half-maximal effect;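 for activation: HepG2 cells with an ARE-driven luciferase reporter; % of control where 0% means no effect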)
How it was run: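 Reporter gene assay, HepG2 ARE-luc: 16 hr compound, 37 C, 5% CO2; read-out luciferase luminescence.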

[12] = biological target: Vitamin D3 receptor (Homo sapiens) (UniProt P11473); assay: qHTS assay for small molecule agonists of vitamin D receptor signaling (AID 588543; calls by dose curve;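 note: 0% = DMSO basal and 100% = reference agonist control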); details: HEK293T VDR-UAS-bla, beta-lactamase ratio, 16 h; at 76.8 µM (top of the series)
How it was run: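 Agonist-mode beta-lactamase reporter: HEK293T VDR-UAS-bla cells in charcoal-stripped 2% FBS, compound series 16 h 37 C, CCF4 2 h RT. EC50 from Hill fit, scaled against DMSO and 50 nM calcitriol control.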

[13] = biological target: Retinoic acid receptor RXR-alpha (Homo sapiens) (UniProt P19793); assay: qHTS assay for small molecule agonists of retinoid X receptor alpha signaling (AID 588544; calls by dose curve;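 note: 0% = DMSO basal wells and 100% = reference agonist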); details: HEK293T RXRa-UAS-bla, beta-lactamase reporter, 18 h; at 76.7 µM (top of the series)
Excerpt: NIH Chemical Genomics Center [NCGC] U.S. Environmental Protection Agency [EPA] National Institutes of Environmental Health Sciences [NIEHS] National Toxicology Program [NTP] NCGC Assay Overview The Retinoid X receptor (RXR), a nuclear hormone receptor is expressed in liver, spleen, placenta, epidermis, central nervous system. These receptors are able to form homo and heterodimers with other nuclear receptors and due to this heterodimerizing ability, RXR functions as master regulators producing diverse physiological effects. Three subtypes of RXR exist; alpha, beta and gamma. […]
NCGC Assay Protocol Summary Using a beta-lactamase reporter-gene under control of Retinoid X receptor--alpha (RXR-alpha) response element, a cell-based assay [GeneBLAzer (RXR-alpha -UAS-bla assay developed by Invitrogen] was used to measure RXR-alpha ligands signaling. GeneBLAzer RXR-alpha -UAS-bla HEK293T cells were used with assay medium containing 2% charcoal-stripped FBS. The assay was performed in clear bottom black Greiner 1536-well plates. 9-cis-retinoic acid was used in the screen as the positive control. Library compounds were measured for their ability to stimulate the reporter gene activity. […] The fluorescence intensity (405 nm excitation, 460/530 nm emission) was measured using an EnVision plate reader. […] Detection; Fluorescence; Envision plate reader

[14] = biological target: Retinoic acid receptor RXR-alpha (Homo sapiens) (UniProt P19793); assay: qHTS assay for small molecule antagonists of retinoid X receptor alpha signaling (AID 588546; active = well fitted inhibition curve with a large enough effect in the signal ratio, with a control signal flat, not every such curve was filed as active; the % refers to the signal ratio;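 note: cells stimulated with 9-cis-retinoic acid as agonist; % is set by controls: 0 for no effect and ±100 for the full control effect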); details: HEK293T RXRa-UAS-bla, beta-lactamase ratio, antagonist mode
How it was run: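 Beta-lactamase reporter inhibition, read as CCF4 fluorescence ratio (ex 405, em 460/530 nm) after 2 h at RT. HEK293T UAS-bla cells, 2500/well, were stimulated with 9-cis-RA at 500 or 100 nM final alongside test compound for 18 h at 37 C.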

[15] = biological target: Thyroid hormone receptor beta (Homo sapiens) (UniProt P10828); assay: qHTS assay for small molecule antagonists of thyroid hormone receptor beta signaling (AID 588547; active = well fitted inhibition curve with a large enough effect in the signal ratio, with a control signal flat, not every such curve was filed as active; the % refers to the signal ratio); details: TR-UAS-bla HEK293, beta-lactamase ratio, antagonist mode, 18 h; active compounds read low
How it was run: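 TR-UAS-bla GripTite HEK293 cells in 2% charcoal/dextran FBS medium; compounds 0.59 nM to 92 uM with T3 at 0.4nM final, 18 h at 37 C. Beta-lactamase read by CCF4 fluorescence (460/530 nm); Hill fits gave IC50 and efficacy.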

[16] = qHTS assay for small molecule agonists of the antioxidant response element (ARE) signaling pathway (AID 651741; active = well fitted activation curve with a large enough effect in the signal ratio; the % refers to the signal ratio; note: % of control where 0% means no effect); details: HepG2 ARE-bla reporter, beta-lactamase FRET ratio, 16 h; at 96 µM (top of the series)
How it was run: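 CellSensor ARE-bla HepG2 cells (2,000/well) carrying ARE-driven beta-lactamase, exposed 16 h at 37 C. LiveBLAzer B/G FRET substrate added for 2 h at room temperature; fluorescence intensity read.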

[17] = qHTS assay for small molecule activators of the p53 signaling pathway (AID 651743; active = well fitted activation curve with a large enough effect in the signal ratio, not every such curve was filed as active; the % refers to the signal ratio; note: % of control where 0% means no effect); details: HCT-116 p53RE-bla, beta-lactamase FRET ratio, 16 h; active compounds read high
How it was run: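 p53RE-bla HCT-116 cells carrying a beta-lactamase reporter under p53 response elements were exposed to compounds for 16 hours at 37 C. Reporter activity read as fluorescence after 2 hours at room temperature with LiveBLAzer B/G FRET substrate.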

[18] = qHTS assay for small molecule disruptors of the mitochondrial membrane potential - 1 hr assay (AID 651754; calls by dose curve; note: % is set by controls: 0 for no effect and ±100 for the full control effect; nearly all actives have a fitted effect of over 35% in size); details: HepG2 mitochondrial membrane potential, JC-1 ratio 590/535, 1 h; at 92.2 µM (top of the series)
How it was run: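 HepG2, 2,000 cells/well, overnight attachment; cpd or DMSO 1 hr, 37C/5% CO2; Mito-MPS dye 30 min, 37C; fluorescence monomer (490/535) and aggregate (540/590).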

[19] = qHTS assay for small molecule disruptors of the mitochondrial membrane potential - 5 hr assay (AID 651755; calls by dose curve; note: % is set by controls: 0 for no effect and ±100 for the full control effect; nearly all actives have a fitted effect of over 40% in size); details: JC-1-type ratio dye; at 92.2 µM (top of the series)
[20] = qHTS assay for small molecule antagonists of the retinoid-related orphan receptor gamma (ROR-gamma) signaling pathway - cell viability counter screen (AID 720652; active = well fitted curve in the direction sought with a large enough effect in the repeat runs; an effect the other way counts as inactive or inconclusive;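 note: CHO reporter cells with doxycycline-induced ROR-gamma expression; compound exposure lasted 16 hr before ATP read; % is set by controls: 0 for no effect and ±100 for the full control effect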); details: RORgamma reporter cell line viability counter screen; at 92.2 µM (top of the series)

CCC(=O)N(c1ccccc1)C1(COC)CCN(CCc2cccs2)CC1
inactive: activity change, negative = inhibition [1] -15.5%

CCC(=O)N(c1ccccc1)C1(COC)CCN(CCn2nnn(CC)c2=O)CC1
inactive: activity change, negative = inhibition [1] -2.05%

CCC(=O)N(c1ccccc1)C1CCN(CCc2ccccc2)CC1
inactive: Potency [2] | Potency [3] | ratio activity, negative = inhibition [4] -6.8%

CN(CCCl)CCCl
inactive: activation [5] -21% | activity change, negative = inhibition ([6]; at 46.1 µM (top of the series)) 1.97% | activity change, negative = inhibition ([6]; at 92.2 µM (top of the series)) 9.47% | activity change, negative = inhibition [1] 0.472% [at 58.6 µM] | activation [7] 0.111% | activation (TNF-alpha secretion) [8] 3.04% | activation [9] 1% | max response [10] -0.534%
active: Potency [2] 14.4 µM | Potency [3] 2.56 µM | Potency [11] 37.6 µM

O=[N+]([O-])C(Cl)(Cl)Cl
inactive: activation [12] 2.31% and -2.65% | activation [13] 13.6% and -8.22% | activation [5] 10.1% and -10.6% | max response [14] 3.97% and -35.6% | inhibition [15] -11.9% and -8.48% | activity change, negative = inhibition ([6]; at 92.2 µM (top of the series)) 21.4% | activation [16] 0.341% and 5.1% | activation [17] -3.71% and -2% | activation [7] 0.117% and -1.34% | ratio change, negative = depolarisation [18] -3.65% | ratio change, negative = disruption [19] 10.6% | activation (TNF-alpha secretion) [8] 0.0365% | activation [9] 0.507% and 0.262% | max response [10] -0.475% and 0.25% | Potency [11] | activity change, negative = cytotoxicity [20] -7.78%

From PubChem BioAssay (NCATS)
